# Assay results taken from patent US10238689B2, “Methods for combating bacterial infections by killing persister cells with mitomycin C and/or cisplatin” (THE PENN STATE RESEARCH FOUNDATION, priority 2015, dated 2019).
# Tested on: E. coli BW25113
# Assay: Validation of persisters (three rounds of the persister assay)
# Type: cell-based, Escherichia coli
# Details: LBCipro5 or LBAmp100 agar
# Protocol: Validation of persisters. To validate that the persister cells are tolerant to antibiotics, not spontaneous resistant mutants, three rounds of the persister assay were performed. Overnight (16 h) cultures of E. coli BW25113 were diluted 1:1000 with fresh buffered LB and grown to a turbidity of ˜0.8 at 600 nm. A 1 mL culture was used for the drop assay, and a 5 mL culture was treated with ciprofloxacin (5 μg/mL) and ampicillin (100 μg/mL) for 3 h (125 mL flask, 250 rpm). After the first round of antibiotic treatment, a 1 mL sample was centrifuged at 10,000 rpm for 3 min, and the cells were resuspended in 1 mL of normal saline. A 100 μL of cell suspension was used for the drop assay on both LB and LB with 5 μg/mL of ciprofloxacin (LBCipro5) agar (for ciprofloxacin treated samples) or LB with 100 μg/mL of ampicillin (LBAmp100) agar (for ampicillin treated samples). For the second and third rounds, cell suspensions were diluted 1:100 with fresh buffered LB and regrown to a turbidity of ˜0.8 at 600 nm and used for antibiotic treatment followed by the drop assay.
structure (smiles),measurement,value
O=C(O)c1cn(C2CC2)c2cc(N3CCNCC3)c(F)cc2c1=O [ciprofloxacin],resistant colonies on antibiotic agar,no colonies were detected
